Protein sequences, listed by entry. Tags and fused reporters are not part of them. Residues count along the entry.
UniProt P02675, 31-491: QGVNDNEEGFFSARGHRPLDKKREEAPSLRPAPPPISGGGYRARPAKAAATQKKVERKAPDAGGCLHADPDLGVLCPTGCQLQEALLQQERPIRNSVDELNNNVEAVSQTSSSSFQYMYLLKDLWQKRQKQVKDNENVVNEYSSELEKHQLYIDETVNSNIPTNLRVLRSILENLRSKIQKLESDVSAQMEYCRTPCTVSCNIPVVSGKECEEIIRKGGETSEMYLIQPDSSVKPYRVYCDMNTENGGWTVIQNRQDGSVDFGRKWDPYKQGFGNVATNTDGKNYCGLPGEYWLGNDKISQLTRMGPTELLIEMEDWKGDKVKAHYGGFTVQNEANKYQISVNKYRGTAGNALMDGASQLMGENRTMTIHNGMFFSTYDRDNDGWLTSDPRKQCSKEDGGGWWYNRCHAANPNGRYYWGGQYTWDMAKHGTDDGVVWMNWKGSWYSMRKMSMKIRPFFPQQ
UniProt P02679, 27-433 limits assumed: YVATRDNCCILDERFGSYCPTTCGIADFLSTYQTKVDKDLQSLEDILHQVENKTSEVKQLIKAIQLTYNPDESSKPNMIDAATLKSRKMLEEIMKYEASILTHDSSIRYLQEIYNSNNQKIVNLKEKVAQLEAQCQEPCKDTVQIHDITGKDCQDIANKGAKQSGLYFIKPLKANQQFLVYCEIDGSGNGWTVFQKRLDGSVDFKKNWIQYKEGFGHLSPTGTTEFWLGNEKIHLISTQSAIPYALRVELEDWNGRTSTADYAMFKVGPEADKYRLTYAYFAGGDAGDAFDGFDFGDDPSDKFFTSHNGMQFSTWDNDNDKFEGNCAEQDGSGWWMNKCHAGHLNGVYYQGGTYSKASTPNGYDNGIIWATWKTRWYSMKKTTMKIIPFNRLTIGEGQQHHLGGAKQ

In US9724379B2, “Therapeutic agents with improved fibrinogen binding” (Haemostatix Limited, priority 2011, dated 2017):

Molecular target: fibrinogen (Homo sapiens, UniProt P02675+P02679)
Assay: Stability in solution at 37° C., assayed by time to visual clot with fibrinogen
Assay type: physicochemical
Details: stored in solution at 37° C.; FIG. 3
Experimental: PeproStat (comprising fibrinogen-binding peptides, each of sequence GPRPG (SEQ ID NO: 4) immobilised to HSA carrier) was stored in solution for 6 months at 37° C. At time zero, and various times during the storage period, samples of the stored solution were assayed for ability to form a co-polymer with fibrinogen, as follows:
Fibrinogen was diluted in 10 mM HEPES, 0.15M NaCl, pH 7.3+/1 0.2 to 6 mg/ml. 25 μl PeproStat at 5 mg/ml was added to 4000 of the diluted fibrinogen, and the time taken for formation of a visual clot comprising a co-polymer of PeproStat and fibrinogen was recorded.

**Q.** Which “Stable in solution (ability to form co-polymer with fibrinogen retained)” value does the source give for “PeproStat: fibrinogen-binding peptide GPRPG linked via PEG12-maleimide to 2-iminothiolane-thiolated human serum albumin carrier” here?
**A.** at least 6 months
